Assay results reported in PubChem BioAssay AID504462 (Sanford-Burnham Center for Chemical Genomics, 2011).
Only a part is listed here, and it is no random draw. The source made the active and inactive calls. Rule as the data show it: active = inhibition above about 40%; inactive = the rest.

Amino acid sequences for entries named in this document (tags omitted).
UniProt Q9Y4P1, whole entry: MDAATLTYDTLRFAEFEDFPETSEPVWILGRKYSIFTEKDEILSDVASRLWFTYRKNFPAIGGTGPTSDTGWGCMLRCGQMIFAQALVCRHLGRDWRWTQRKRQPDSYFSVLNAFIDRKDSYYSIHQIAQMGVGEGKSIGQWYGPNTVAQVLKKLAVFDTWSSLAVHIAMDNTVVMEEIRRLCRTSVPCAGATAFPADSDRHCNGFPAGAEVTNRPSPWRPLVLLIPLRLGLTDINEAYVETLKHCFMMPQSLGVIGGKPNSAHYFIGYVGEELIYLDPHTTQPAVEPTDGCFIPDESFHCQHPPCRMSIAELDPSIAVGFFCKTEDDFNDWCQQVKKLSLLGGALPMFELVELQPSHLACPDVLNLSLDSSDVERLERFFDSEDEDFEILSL

Molecular target: Cysteine protease ATG4B (Homo sapiens) (UniProt Q9Y4P1)
Assay: ATG4B protease inhibitors, primary screen, biochemical, fluorescence, uHTS (AID 504462)
Conditions: ATG4B cleavage of LC3-PLA2, NBD-HPC fluorescence, 1 h; at 8.33 µM; stronger effect = higher value

Question: How did the inhibition turn out when `CN1CCC(Nc2ccc(F)c(Cl)c2)CC1` was run?
Answer: Its inhibition is inactive: -6.11%.

Question: Which inhibition does the source give for `CCOc1ncccc1C(=O)NCC1(N2CCOCC2)CCCCC1` here?
Answer: Its inhibition is inactive: 3.67%.

Question: How did the inhibition turn out when `CCCOc1ccc(C(=O)NCC2(N(C)C)CCCCC2)cc1` was run?
Answer: The inhibition was inactive: 1.19%.

Question: Which inhibition does the source give for `O=C(O)C1(Nc2ccccc2)CCN(Cc2ccccc2)CC1` here?
Answer: The inhibition was inactive: -4.74%.

Question: For `CC(C)(C)OC(=O)N1CCC(Nc2ccccc2)CC1`, which inhibition is on record?
Answer: The inhibition was inactive: -3.86%.

Question: For `CCC(CO)(C(=O)OC1CN2CCC1CC2)c1ccccc1` (stereo not given), which inhibition is on record?
Answer: Its inhibition is inactive: 2.99%.

Question: `COc1cc(OC)cc(C(=O)NCC2(N3CCOCC3)CCCCC2)c1` was tested. Which inhibition did it give?
Answer: Its inhibition is inactive: -5.05%.

Question: `COc1cccc(C(=O)N(c2cc(C)cc(C)c2)C2CCN(C(=O)OC(C)(C)C)CC2)c1` was tested. Which inhibition did it give?
Answer: Its inhibition is inactive: -8.42%.

Question: `CN1CCC(Nc2ccc(Cl)cc2)CC1` was tested. Which inhibition did it give?
Answer: Its inhibition is inactive: -2.71%.

Question: For `COc1cc(OC)cc(C(=O)NCC2(N3CCCCC3)CCCCC2)c1`, which inhibition is on record?
Answer: The inhibition was inactive: -10.6%.

Question: How did the inhibition turn out when `CC(=O)N(c1ccccc1)C1CCNCC1` was run?
Answer: The inhibition was inactive: 1.97%.

Question: Which inhibition does the source give for `Cc1ccc(NC2(C#N)CCN(Cc3ccccc3)CC2)cc1` here?
Answer: Its inhibition is inactive: -1.3%.

Question: With `Fc1ccccc1NC1CCN(Cc2ccccc2)CC1` as the molecule, how does the inhibition read?
Answer: The inhibition was inactive: -1.77%.

Question: How did the inhibition turn out when `Cc1ccc(C(=O)NCC2(N3CCCCC3)CCCCC2)o1` was run?
Answer: The inhibition was inactive: -2.04%.

Question: For `CCN1CCC(Nc2cccc(F)c2)CC1`, which inhibition is on record?
Answer: Its inhibition is inactive: 2.34%.

Question: `Cc1ccccc1NC1(C#N)CCN(Cc2ccccc2)CC1` was tested. Which inhibition did it give?
Answer: The inhibition was inactive: -2.4%.

Question: `CN(C)c1ccc(C(=O)NCC2(N3CCCCC3)CCCCC2)cc1` was tested. Which inhibition did it give?
Answer: The inhibition was inactive: -1.85%.

Question: For `Cn1c(=O)[nH]cc(N(CCCl)CCCl)c1=O`, which inhibition is on record?
Answer: The inhibition was inactive: -8.53%.

Question: Which inhibition does the source give for `O=C(NCC1(N2CCCCC2)CCCCC1)c1ccco1` here?
Answer: The inhibition was inactive: 2.08%.

Question: Which inhibition does the source give for `CC(C)(C)OC(=O)N1CCC(N(C(=O)c2ccccc2)c2ccc(Cl)cc2)CC1` here?
Answer: Its inhibition is inactive: 39.6%.

Question: Which inhibition does the source give for `N#Cc1ccc(C(=O)NCC2(N3CCCCC3)CCCCC2)cc1` here?
Answer: Its inhibition is inactive: 2.19%.

Question: Which inhibition does the source give for `CCCN1CCC(Nc2cc(OC)cc(OC)c2)CC1` here?
Answer: The inhibition was inactive: -3.07%.

Question: For `Cc1cc(N(CCCl)CCCl)ccc1C=O`, which inhibition is on record?
Answer: The inhibition was inactive: -4.57%.

Question: For `c1ccc(CN2CCC(Nc3ccccc3)CC2)cc1`, which inhibition is on record?
Answer: The inhibition was inactive: -4.92%.

Question: `CN(C)C1(CNC(=O)c2cccc(C#N)c2)CCCCC1` was tested. Which inhibition did it give?
Answer: The inhibition was inactive: -1.62%.

Question: For `O=C(NCC1(N2CCOCC2)CCCCC1)c1cc(Br)ccc1Cl`, which inhibition is on record?
Answer: Its inhibition is inactive: -4.76%.

Question: With `COc1cc(C(=O)NCC2(N3CCOCC3)CCCCC2)cc(OC)c1C` as the molecule, how does the inhibition read?
Answer: Its inhibition is inactive: -5.11%.

Question: Which inhibition does the source give for `COc1ccc(C(=O)NCC2(N3CCOCC3)CCCCC2)cc1OC` here?
Answer: Its inhibition is inactive: 0.89%.

Question: For `N/C(=N\O)c1c(N)no[n+]1[O-]`, which inhibition is on record?
Answer: The inhibition was inactive: -2.91%.

Question: `CCOC(=O)N1CCC(Nc2ccc(C)cc2)CC1` was tested. Which inhibition did it give?
Answer: The inhibition was inactive: 5.31%.

Question: `CCc1cc(C(=O)NCC2(N3CCCCC3)CCCCC2)sc1C` was tested. Which inhibition did it give?
Answer: Its inhibition is inactive: -7.97%.

Question: Which inhibition does the source give for `O=C(OC1CN2CCC1CC2)C1c2ccccc2C=Cc2ccccc21` (stereo not given) here?
Answer: The inhibition was inactive: 1.51%.

Question: With `CN(C)c1cccc(C(=O)NCC2(N3CCCCC3)CCCCC2)c1` as the molecule, how does the inhibition read?
Answer: Its inhibition is inactive: -21.5%.

Question: `COc1ccc(CN(CCCl)CCCl)cc1Cl` was tested. Which inhibition did it give?
Answer: The inhibition was inactive: -2.66%.

Question: With `CC(C)c1ccc(NC2CCN(C(=O)OC(C)(C)C)CC2)cc1` as the molecule, how does the inhibition read?
Answer: The inhibition was inactive: -0.17%.

Question: How did the inhibition turn out when `O=C(NCC1(N2CCOCC2)CCCCC1)c1cc(F)c(F)cc1Cl` was run?
Answer: Its inhibition is inactive: -8%.

Question: How did the inhibition turn out when `COc1cc(OC)c(C(=O)NCC2(N(C)C)CCCCC2)cc1OC` was run?
Answer: The inhibition was inactive: -2.58%.

Question: `CN1CCC(Nc2cccc(F)c2)CC1` was tested. Which inhibition did it give?
Answer: The inhibition was inactive: -0.52%.

Question: With `O=C(NCC1(N2CCCCC2)CCCCC1)c1cncc(Br)c1` as the molecule, how does the inhibition read?
Answer: Its inhibition is inactive: -4.76%.

Question: `CCCOc1ccc(C(=O)NCC2(N(C)C)CCCCC2)cc1OC` was tested. Which inhibition did it give?
Answer: The inhibition was inactive: -7.63%.

Question: With `O=C(NCC1(N2CCCCC2)CCCCC1)c1ccc(OC(F)F)cc1` as the molecule, how does the inhibition read?
Answer: The inhibition was inactive: -4.27%.

Question: Which inhibition does the source give for `CSc1ccc(C(=O)NCC2(N3CCOCC3)CCCCC2)cc1` here?
Answer: Its inhibition is inactive: -2.79%.

Question: How did the inhibition turn out when `O=C(NCC1(N2CCCCC2)CCCCC1)c1cccc([N+](=O)[O-])c1` was run?
Answer: Its inhibition is inactive: -0.8%.

Question: `N#CC1(Nc2ccccc2)CCN(CCc2ccccc2)CC1` was tested. Which inhibition did it give?
Answer: Its inhibition is inactive: -8.08%.

Question: With `CCN1CCC(Nc2ccc(Cl)cc2)CC1` as the molecule, how does the inhibition read?
Answer: The inhibition was inactive: -2.45%.

Question: For `O=C(NCC1(N2CCCCC2)CCCCC1)c1cccc(C(F)(F)F)c1`, which inhibition is on record?
Answer: Its inhibition is inactive: -6.83%.

Question: Which inhibition does the source give for `CN1CCN(CCOC(=O)C(O)(c2ccccc2)c2ccccc2)CC1` here?
Answer: The inhibition was inactive: 2.99%.

Question: Which inhibition does the source give for `COc1ccc(NC2CCN(C(=O)OC(C)(C)C)CC2)cc1` here?
Answer: Its inhibition is inactive: -6.32%.

Question: With `CC(C)c1ccc(C(=O)NCC2(N3CCOCC3)CCCCC2)cc1` as the molecule, how does the inhibition read?
Answer: The inhibition was inactive: -13.6%.

Question: With `COc1cc(C(=O)NCC2(N3CCCCC3)CCCCC2)ccc1OC(F)F` as the molecule, how does the inhibition read?
Answer: The inhibition was inactive: -4.35%.

Question: With `O=C(NCC1(N2CCOCC2)CCCCC1)c1cc(=O)[nH]c2ccccc12` as the molecule, how does the inhibition read?
Answer: The inhibition was inactive: -3.33%.

Question: `CCOc1ccc(C)cc1CN(CCCl)CCCl` was tested. Which inhibition did it give?
Answer: Its inhibition is inactive: -1.8%.

Question: With `O=C1CCN(Cc2ccccc2)CC1` as the molecule, how does the inhibition read?
Answer: The inhibition was inactive: -25.7%.

Question: For `COc1ccc(NC2CCN(CCc3ccccc3)CC2)c(OC)c1`, which inhibition is on record?
Answer: The inhibition was inactive: -4.77%.

Question: With `CCOC(=O)N1CCC(Nc2ccc(F)cc2)CC1` as the molecule, how does the inhibition read?
Answer: The inhibition was inactive: 1.56%.

Question: For `O=P1(N(CCCl)CCCl)SCCCS1`, which inhibition is on record?
Answer: The inhibition was inactive: -5.13%.

Question: Which inhibition does the source give for `CCCCOc1ccc(C(=O)NCC2(N3CCOCC3)CCCCC2)cc1` here?
Answer: Its inhibition is inactive: 3.7%.

Question: With `O=C(NCC1(N2CCCCC2)CCCCC1)c1ccc(F)cc1` as the molecule, how does the inhibition read?
Answer: The inhibition was inactive: -7.56%.

Question: `CCOC(=O)N1CCC(Nc2cccc(C)c2)CC1` was tested. Which inhibition did it give?
Answer: Its inhibition is inactive: -4.39%.

Question: With `COc1cc(C(=O)NCC2(N(C)C)CCCCC2)ccc1OC(F)F` as the molecule, how does the inhibition read?
Answer: Its inhibition is inactive: -1.55%.

Question: For `O=C(NCC1(N2CCCCC2)CCCCC1)c1cccs1`, which inhibition is on record?
Answer: The inhibition was inactive: -2.24%.

Question: For `O=C(NCC1(N2CCCCC2)CCCCC1)c1ccc(=O)[nH]c1`, which inhibition is on record?
Answer: Its inhibition is inactive: 2.82%.

Question: With `COc1ccc(C(=O)NCC2(N3CCCCC3)CCCCC2)c(OC)c1OC` as the molecule, how does the inhibition read?
Answer: Its inhibition is inactive: 1.26%.

Question: How did the inhibition turn out when `CC(C)(C)OC(=O)N1CCC(N(C(=O)c2ccccc2)c2ccc(F)cc2)CC1` was run?
Answer: Its inhibition is inactive: 0.26%.

Question: With `COc1ccc(C(=O)NCC2(N3CCCCC3)CCCCC2)cc1` as the molecule, how does the inhibition read?
Answer: Its inhibition is inactive: -6.88%.

Question: How did the inhibition turn out when `Cc1cccc(NC2(C#N)CCN(Cc3ccccc3)CC2)c1` was run?
Answer: The inhibition was inactive: -2.4%.

Question: With `CSc1ccccc1C(=O)NCC1(N2CCCCC2)CCCCC1` as the molecule, how does the inhibition read?
Answer: Its inhibition is inactive: -3.03%.

Question: For `O=C(NCC1(N2CCOCC2)CCCCC1)c1cc2ccccc2o1`, which inhibition is on record?
Answer: The inhibition was inactive: -5.18%.

Question: Which inhibition does the source give for `Cc1cc(C)cc(N(C(=O)c2ccccc2)C2CCN(C(=O)OC(C)(C)C)CC2)c1` here?
Answer: Its inhibition is inactive: 6.69%.

Question: With `O=C(NCC1(N2CCCCC2)CCCCC1)c1ccc(Cl)nc1` as the molecule, how does the inhibition read?
Answer: The inhibition was inactive: 2.02%.

Question: With `CCOC(=O)N1CCC(Nc2ccc(OC)cc2)CC1` as the molecule, how does the inhibition read?
Answer: The inhibition was inactive: -7.18%.

Question: How did the inhibition turn out when `COc1ccc(Cl)cc1C(=O)NCC1(N2CCOCC2)CCCCC1` was run?
Answer: Its inhibition is inactive: 0.37%.

Question: With `N#CC1(Nc2ccccc2)CCN(Cc2ccccc2)CC1` as the molecule, how does the inhibition read?
Answer: Its inhibition is inactive: -4.57%.

Question: How did the inhibition turn out when `O=C(NCC1(N2CCCCC2)CCCCC1)c1ccc(Cl)s1` was run?
Answer: Its inhibition is inactive: -10.7%.

Question: Which inhibition does the source give for `O=C(OC1CN2CCC1CC2)C1c2ccccc2Oc2ccccc21` (stereo not given) here?
Answer: The inhibition was inactive: -3.77%.
